The values that follow are results of earlier work, collected in article PMC6173196 (Journal of immunology (Baltimore, Md. : 1950), 2018).

Protein sequences, listed by entry. Tags and fused reporters are not part of them. Residues count along the entry.
UniProt P01589, 22-240, chain 1 of 3: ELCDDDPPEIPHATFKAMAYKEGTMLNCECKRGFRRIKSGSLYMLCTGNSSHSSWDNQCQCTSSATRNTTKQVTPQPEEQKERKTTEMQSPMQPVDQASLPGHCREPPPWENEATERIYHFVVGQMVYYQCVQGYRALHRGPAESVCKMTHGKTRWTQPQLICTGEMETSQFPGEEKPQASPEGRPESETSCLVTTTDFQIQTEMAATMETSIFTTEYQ
UniProt P60568, 21-153: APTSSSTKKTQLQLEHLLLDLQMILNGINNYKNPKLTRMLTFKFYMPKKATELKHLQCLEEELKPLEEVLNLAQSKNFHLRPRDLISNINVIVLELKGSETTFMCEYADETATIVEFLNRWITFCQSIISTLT

This series addresses IL-2 receptor αβγ (Homo sapiens) (UniProt P01589). The settings on record: cited from earlier work.

As to IL-2 (from UniProt P60568), the Kd was 0.1 nM.

Usually Kd stands for the equilibrium constant for the complex coming apart.
